Experimental data published in PMC9061857, “A fluorogenic probe for granzyme B enables in-biopsy evaluation and screening of response to anticancer immunotherapies” (Nature Communications, 2022).

Protein sequences, listed by entry. Tags and fused reporters are not part of them. Residues count along the entry.
UniProt P10144, 21-247 limits assumed: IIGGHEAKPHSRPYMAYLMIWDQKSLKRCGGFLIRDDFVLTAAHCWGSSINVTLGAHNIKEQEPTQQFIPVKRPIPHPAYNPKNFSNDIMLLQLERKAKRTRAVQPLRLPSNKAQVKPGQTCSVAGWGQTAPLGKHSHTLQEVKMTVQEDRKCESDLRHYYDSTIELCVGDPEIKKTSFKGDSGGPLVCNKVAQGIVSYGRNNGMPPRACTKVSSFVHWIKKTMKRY

Columns and labels:
[1] = tested on: hGzmB; test: Limit of detection of hGzmB by probe fluorescence; conditions: limit of detection of hGzmB (Fig. S1)
[2] = target: T1, human GzmB (hGzmB) (Homo sapiens, UniProt P10144); test: Fluorescence assay with recombinant hGzmB (fluorogenic response, time course); assay type: biochemical; conditions: probe 25 μM, hGzmB 20 nM
[3] = target: T1, human GzmB (hGzmB); test: HPLC conversion of fluorogenic peptides by hGzmB; assay type: biochemical; conditions: TRIS buffer, 37 °C
[4] = target: recombinant human GzmB (Homo sapiens, UniProt P10144); test: Kinetic measurements (Michaelis-Menten) with recombinant hGzmB; assay type: biochemical; conditions: hGzmB 20 nM, 37 °C, n = 3

Structure (SMILES): CCC(C)C(NC(=O)CCc1ccc2n1[B-](F)(F)[N+]1=C(C)C=C(C)C1=C2)C(=O)NC(CCC(=O)O)C(=O)N1CCCC1C(=O)NC(CC(=O)O)C(=O)NCCNC(=O)c1ccc(N=Nc2ccc(N(C)C)cc2)cc1 (stereo not shown)
- LoD [1]: 17 nM
- S/N ratios ([2]; Data 1): 3
- S/N ratios ([2]; Data 2): 3
- S/N ratios ([2]; Data 3): 3
- HPLC conversion rate ([3]; 2h-20 nM hGzmB, Data 1): 2%
- HPLC conversion rate ([3]; 2h-20 nM hGzmB, Data 2): 1%
- HPLC conversion rate ([3]; 2h-20 nM hGzmB, Data 3): 1%
- HPLC conversion rate ([3]; 2h-50 nM hGzmB, Data 1): 3.5%
- HPLC conversion rate ([3]; 2h-50 nM hGzmB, Data 2): 2.5%
- HPLC conversion rate ([3]; 2h-50 nM hGzmB, Data 3): 3%
- HPLC conversion rate ([3]; 2h-100 nM hGzmB, Data 1): 7%
- HPLC conversion rate ([3]; 2h-100 nM hGzmB, Data 2): 4%
- HPLC conversion rate ([3]; 2h-100 nM hGzmB, Data 3): 5.5%
- HPLC conversion rate ([3]; 6h-20 nM hGzmB, Data 1): 2%
- HPLC conversion rate ([3]; 6h-20 nM hGzmB, Data 2): 1.5%
- HPLC conversion rate ([3]; 6h-20 nM hGzmB, Data 3): 1.5%
- HPLC conversion rate ([3]; 6h-50 nM hGzmB, Data 1): 4.5%
- HPLC conversion rate ([3]; 6h-50 nM hGzmB, Data 2): 3%
- HPLC conversion rate ([3]; 6h-50 nM hGzmB, Data 3): 3.5%
- HPLC conversion rate ([3]; 6h-100 nM hGzmB, Data 1): 12.5%
- HPLC conversion rate ([3]; 6h-100 nM hGzmB, Data 2): 6%
- HPLC conversion rate ([3]; 6h-100 nM hGzmB, Data 3): 10.5%
- HPLC conversion rate ([3]; 24h-20 nM hGzmB, Data 1): 3.5%
- HPLC conversion rate ([3]; 24h-20 nM hGzmB, Data 2): 3%
- HPLC conversion rate ([3]; 24h-20 nM hGzmB, Data 3): 3.5%
- HPLC conversion rate ([3]; 24h-50 nM hGzmB, Data 1): 7%
- HPLC conversion rate ([3]; 24h-50 nM hGzmB, Data 2): 5%
- HPLC conversion rate ([3]; 24h-50 nM hGzmB, Data 3): 6%
- HPLC conversion rate ([3]; 24h-100 nM hGzmB, Data 1): 20%
- HPLC conversion rate ([3]; 24h-100 nM hGzmB, Data 2): 12%
- HPLC conversion rate ([3]; 24h-100 nM hGzmB, Data 3): 17%
- HPLC conversion (100 nM hGzmB, 24 h) ([3]; probe 25 μM (Ac-IEPD-AMC 50 μM), HPLC-UV): 14%
- Kcat [4]: 2.3 s⁻¹
- Km [4]: 30.8 µM
